Mito fusion act: mitochondrial division inhibition or fusion activation; 0.23% of 320,000 active; Potency, µM (series often up to 46.1 µM), inactives show at the highest dose growth rescue (activation), actives largely listed as activators; S. cerevisiae fusion-defective mutant growth rescue, CellTiterGlo 48 h; note: potency is the fitted concentration of half-maximal effect; % of control where 0% means no effect; nearly all actives have a fitted effect of over 45% in size
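Read-out: ATP-based luminescence (CellTiterGlo, 10 min ambient) reporting growth of fusion-defective ts yeast after 48 hours at 37C on glycerol/ethanol YPEG medium in the presence of compound.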
A549 viability: counter-screen for Nrf2 inhibitors: cytotoxicity in A549 cells | A549 ARE-Fluc cells, CellTiter-Fluor viability, 18-24 h | 0.16% of 390,000 active | Potency, µM (titrated, usually from 46 µM), for the others: at the highest dose activity change, negative = cytotoxicity, most hits filed as inhibitors; note: potency is the fitted concentration of half-maximal effect; % is set by controls: 0 for no effect and ±100 for the full control effect
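A549 ARE_Fluc cells in 5% FBS OPTI-MEM were exposed to compounds in concentration-response for 18-24 h at 37 deg C. Viability was read by CellTiter-Fluor fluorescence (Ex 405/Em 525) after 30 min, before the luciferase read.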
Glioma ERSR ind: induces the endoplasmic reticulum stress response in human glioma cells. U87-MG GRP78 promoter luciferase reporter, 16 h. Potency, µM, for inactives: at the top dose activation, most hits filed as activators. 0.02% of 420,000 active. AID 602332; note: potency is the fitted concentration of half-maximal effect; series mostly up to about 76 µM; % of control where 0% means no effect; nearly all actives have a fitted effect of over 35% in size
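ERSR induction read as luciferase luminescence (Bright-Glo, 10 min at room temperature) in stably transfected human U87-MG glioma cells exposed to compounds for 16 h, using GRP78 as sensor.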
Nrf2 inh: blocks Nrf2 signaling; Potency, µM (highest dose often 46 µM), for the others: top-dose activity change, negative = inhibition, actives largely listed as inhibitors; A549 ARE-Fluc reporter, luciferase luminescence, 18-24 h; 2.1% of 360,000 active; note: potency is the fitted concentration of half-maximal effect; % is set by controls: 0 for no effect and ±100 for the full control effect; nearly all actives have a fitted effect of over 60% in size
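A549 ARE_Fluc cells, 5000/well, 5% FBS OPTI-MEM; compounds in dose-response, 18-24 h at 37 °C/5% CO2; CellTiter-Fluor viability read (Ex 405/Em 525), then BugLite luciferase luminescence = Nrf2 activity.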
Nrf2 activator: activators of Nrf2 (ARE) signaling | AREc32 ARE-luciferase reporter (MCF7-derived line), luminescence, 24 h | 0.31% of 410,000 active | Potency, µM (top dose mostly 46.1 µM), for inactives: at the top dose activation, actives largely listed as activators; note: potency is the fitted concentration of half-maximal effect; % of control where 0% means no effect; nearly all actives have a fitted effect of over 65% in size
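Luminescent ARE reporter assay in AREc32_Fluc cells: overnight plating at 37 deg C, 24 hr compound incubation, Steady-Glo added, 30 min RT before reading.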
miR-21 reporter: raises the signal of a miR-21 reporter | HeLa miR-21 FLuc reporter, luciferase, 48 h | Potency, µM (doses to about 38.3 µM), for the others: at the highest dose reporter change, positive = more light | 340,000 tested, under 10 active | AID 2288; active = well fitted rising curve with a large enough effect; inconclusive = small, poorly fitted or top-dose-only effect; inactive = no such curve, though single readings can be large or run the other way;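 also: % of control where 0% means no effect; miR-21 action dims this reporter so a rising signal means less miR-21 action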
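HeLa cells stably expressing CMV-driven firefly luciferase with a downstream miR-21 binding sequence, endogenously expressing miR-21, were treated with titrations (up to about 40uM final) for 48 hours at 37 degree Celsius. Luciferase luminescence was read after lysis.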
Active calls of the source: *; ? = inconclusive; / = no result given; [ ] = another dose, or the depositor's remark. A selection: hits, their analogues and other compounds. The true share with any hit is near 2.3%. Unless noted, calls come from the whole dose curve; as a rule, active = well fitted curve in the direction sought with a large enough effect; inconclusive = small, poorly fitted or top-dose-only effect, or another doubt; inactive = no such curve, though single readings can be large; an effect the other way counts as inactive or inconclusive.

Letter code – A = Mito fusion act; B = A549 viability; C = Glioma ERSR ind; D = Nrf2 inh; E = Nrf2 activator; F = miR-21 reporter
(1) COc1cccc(C2c3c(ncn(-c4cccc(OC)c4)c3=N)Oc3ccc4ccccc4c32)c1 (configuration not stated)
  A: / | B: -12% | C: / | D: -2% | E: / | F: /
(2) O=C(NNC(=O)C12CC3CC(CC(C3)C1)C2)[C@@H]1C[C@H]1c1ccccc1
  A: 3% | B: -3% | C: 5% | D: 17% | E: 0% | F: -9%
(3) O=C(Nc1cc(Cl)ccc1-n1cncn1)c1ccco1
  A: / | B: 2% | C: -4% | D: 1% | E: 10µM* | F: /
(4) Cc1ccc(C(=O)Nc2cc(Cl)ccc2-n2cncn2)o1
  A: 10% | B: 0% | C: 0% | D: 18% | E: 7% | F: /
(5) COc1ccc(Cl)cc1NC(=O)c1cc2ccccn2n1
  A: / | B: 13% | C: -1% | D: ? | E: 5.6µM* | F: -44%
(6) COc1ccc(NC(=O)c2ccco2)cc1NC(=O)c1cc(Cl)ccc1OC
  A: / | B: -5% | C: -3% | D: -19% | E: 3% | F: -28%
(7) CCOc1ccc(CCNC(=O)c2cc3ccccn3n2)cc1OCC
  A: 1% | B: -7% | C: -3% | D: 21µM* | E: 2% | F: 7%
(8) COc1ccc(C)cc1NC(=O)c1cc2ccccn2n1
  A: / | B: 4% | C: 4% | D: -21% | E: 18% | F: -50%
(9) Cc1cccc(CCNC(=O)c2cc3ccccn3n2)c1
  A: / | B: 3% | C: 0% | D: ? | E: 1% | F: -52%
(10) COc1ccc(Cl)cc1NC(=O)c1ccco1
  A: 0% | B: 1% | C: -4% | D: / | E: 5µM* | F: 2%

Next structures
Letter code – A = Mito fusion act; B = A549 viability; C = Glioma ERSR ind; D = Nrf2 inh; E = Nrf2 activator; F = miR-21 reporter
(11) CCn1c(SCC(=O)c2cccs2)nnc1-c1ccco1
  A: -1% | B: 3% | C: -1% | D: 22% | E: 0% | F: -35%
(12) Cc1cccc(OCC(=O)OCC(=O)NCC2CCCO2)c1C (configuration not stated)
  A: -2% | B: -2% | C: -4% | D: 2% | E: -1% | F: /
(13) COc1ccc(NC(=O)c2ccco2)cc1NC(=O)COc1cc(C)ccc1C(C)C
  A: / | B: -19% | C: -3% | D: 18µM* | E: -1% | F: 9%
(14) Cc1ccc(C(C)C)c(OCC(=O)Nc2cccc(NC(=O)c3ccco3)c2)c1
  A: / | B: 4% | C: -3% | D: -12% | E: -3% | F: 21%
(15) O=C(NN1C(=O)/C(=C/c2ccc(O)c([N+](=O)[O-])c2)SC1=S)c1ccccc1Cl
  A: -2% | B: 3.7µM* | C: -3% | D: ? | E: 0% | F: 1%
(16) CCOCc1nnc(NC(=O)c2cc(Cl)ccc2OC)s1
  A: 6% | B: -11% | C: -6% | D: -15% | E: ? | F: -11%
(17) COCc1nnc(NC(=O)c2cc(Cl)ccc2OC)s1
  A: 5% | B: / | C: -1% | D: 27% | E: 13µM* | F: -29%
(18) Cc1ccc([N+](=O)[O-])cc1-c1ccc(/C=N/NC(=O)CN2CCOCC2)o1
  A: 7% | B: 8% | C: -2% | D: -14% | E: 13µM* | F: -8%
(19) COC(=O)C1(C)NC(c2ccc(OC)cc2)C2C(=O)N(c3ccccc3)C(=O)C21 (configuration not stated)
  A: -2% | B: -11% | C: 4% | D: -6% | E: -1% | F: 0%
(20) CC(C)C1Cc2c(sc3[nH]c(=S)n(Cc4ccccc4)c(=O)c23)CO1 (configuration not stated)
  A: 4% | B: ? | C: -5% | D: 16µM* | E: -1% | F: -1%

Next part.
Letter code – A = Mito fusion act; B = A549 viability; C = Glioma ERSR ind; D = Nrf2 inh; E = Nrf2 activator; F = miR-21 reporter
(21) N/C(=N\O)c1cccc(CS(=O)(=O)c2ccccn2)c1
  A: 2% | B: 0% | C: -6% | D: 1% | E: 0% | F: 0%
(22) O=C(NCc1ccc(F)cc1)c1ccc2c(=O)n3c(nc2c1)CCCCC3
  A: 2% | B: 6% | C: -3% | D: -11% | E: 0% | F: -4%
(23) Cc1ccc(-c2csc(NC(=O)c3ccc4c(=O)n5c(nc4c3)CCCCC5)n2)cc1
  A: 21% | B: 12% | C: -3% | D: 5.2µM* | E: 3%[9.22 µM] | F: 17%
(24) COc1ccc(CNC(=O)c2ccc3c(=O)n4c(nc3c2)CCCCC4)cc1OC
  A: 0% | B: -14% | C: -4% | D: 6.5µM* | E: 0% | F: /
(25) O=c1nc(NC2CCCC2)ccn1Cc1cccc(Br)c1
  A: -1% | B: 2% | C: 6% | D: ? | E: 0% | F: -5%
(26) Cc1ccc(Nc2nc3ccccc3c3nncn23)c(Cl)c1
  A: / | B: 4% | C: 1% | D: 13% | E: 6% | F: -2%
(27) CCN(CC)CCn1nc(C)nc1-c1ccccc1O
  A: 0% | B: 3% | C: -2% | D: -26% | E: -2% | F: -6%
(28) CCN(CC)CCn1nc2c3c(cccc3c1=O)-c1ccccc1-2
  A: -13% | B: 13µM* | C: ? | D: ? | E: -2% | F: ?
(29) COc1ccc(OC)c(S(=O)(=O)NCCc2csc(-c3cccnc3)n2)c1
  A: 5% | B: 13% | C: -1% | D: 10% | E: 4% | F: -6%
(30) O=C(NCCc1ccccc1)c1cc(-c2ccc3c(c2)OCO3)on1
  A: 3% | B: 1% | C: -1% | D: 1% | E: 0% | F: -6%

Results in sequence from the entries so far.
Nrf2 inh, entries 21–30 → 1%, -11%, 5.2µM*, 6.5µM*, ?, 13%, -26%, ?, 10%, 1%
Glioma ERSR ind, entries 21–30 → -6%, -3%, -3%, -4%, 6%, 1%, -2%, ?, -1%, -1%

The main list resumes, repeating the 2 entries before the break.
Letter code – A = Mito fusion act; B = A549 viability; C = Glioma ERSR ind; D = Nrf2 inh; E = Nrf2 activator; F = miR-21 reporter
(29) COc1ccc(OC)c(S(=O)(=O)NCCc2csc(-c3cccnc3)n2)c1
  A: 5% | B: 13% | C: -1% | D: 10% | E: 4% | F: -6%
(30) O=C(NCCc1ccccc1)c1cc(-c2ccc3c(c2)OCO3)on1
  A: 3% | B: 1% | C: -1% | D: 1% | E: 0% | F: -6%
(31) CC(=O)OCc1c(C(F)(F)F)nn(C)c1Oc1cccc(C(F)(F)F)c1
  A: 0% | B: 0% | C: 4% | D: -14% | E: 0% | F: -1%
(32) CCOc1ccc(N(CC)S(=O)(=O)N2CCCC(C(=O)Nc3ccc(OC)c(OC)c3)C2)cc1 (configuration not stated)
  A: / | B: 12% | C: -4% | D: 21µM* | E: 1% | F: -4%
(33) N#Cc1ncc(C(F)(F)F)cc1Sc1ccccc1N
  A: 9% | B: 7% | C: -2% | D: / | E: 0% | F: -1%
(34) Fc1ccc(-c2csc3[n+]2CCS3)cc1
  A: 6% | B: -22% | C: -6% | D: 16µM* | E: -1% | F: -5%
(35) COc1cccc(CN(C(=O)c2ccccc2)C2CCS(=O)(=O)C2)c1 (configuration not stated)
  A: 7% | B: 2% | C: 5% | D: 0% | E: 0% | F: -6%
(36) Cc1[nH]c(=S)sc1Cc1ccc(F)cc1
  A: 7% | B: 1% | C: -1% | D: 13% | E: 7% | F: 10%
(37) CC1(c2nnc(-c3ccc(Cl)cc3)o2)CC(c2cccc(Cl)c2)=NO1 (configuration not stated)
  A: 11% | B: 4% | C: -3% | D: 2% | E: -1% | F: 2%
(38) CC1(c2nnc(-c3ccccc3)o2)CC(c2cccc(Cl)c2)=NO1 (configuration not stated)
  A: 3.2µM* | B: 0% | C: -4% | D: ? | E: 1% | F: 12%
(39) Cc1cc(C)n(S(=O)(=O)c2ccccc2[N+](=O)[O-])n1
  A: 1% | B: -4% | C: -6% | D: -3% | E: 8%[9.22 µM] | F: 7%
(40) CCOC(=O)Nc1c(Cl)[nH]c(=O)n(C)c1=O
  A: / | B: 0% | C: -3% | D: -3% | E: 0% | F: /

(list continues)
Letter code – A = Mito fusion act; B = A549 viability; C = Glioma ERSR ind; D = Nrf2 inh; E = Nrf2 activator; F = miR-21 reporter
(41) Cn1c2ccccc2c2nnc(SCCOc3ccccc3)nc21
  A: / | B: -10% | C: -1% | D: 5.2µM* | E: / | F: /
(42) CCn1c2ccccc2c2nnc(SCc3ccccc3)nc21
  A: 16µM* | B: -4% | C: 8% | D: ? | E: 7% | F: -31%
(43) CCn1c2ccccc2c2nnc(SCC(N)=O)nc21
  A: 4% | B: 4% | C: -5% | D: -14% | E: 0% | F: -11%
(44) COc1ccc(NC(=O)CSc2ccccn2)cc1OC
  A: 1% | B: -2% | C: 9% | D: 11% | E: 1% | F: -11%
(45) COc1ccc(NC(=O)C#Cc2ccccc2)cc1OC
  A: -11% | B: -8% | C: ? | D: 8.2µM* | E: 12%[9.22 µM] | F: 8%
(46) O=C(CSc1nc(-c2ccc(F)cc2)[nH]c1-c1ccccc1)Nc1ccccc1
  A: / | B: -24% | C: 0% | D: 21µM* | E: 3% | F: 27%
(47) COc1ccc(-c2nc(SCC(=O)Nc3ccccc3)c(-c3ccc(F)cc3)[nH]2)cc1OC
  A: / | B: ? | C: -6% | D: 15µM* | E: 0% | F: 27%

Quoted from the listing.
For Nrf2 activator, entry 44 shows 1%
For Nrf2 inh, entry 43 shows -14%
